Measured values as given in patent US5356904A, “Carbostyril oxytocin receptor antagonists” (Merck & Co., Inc., priority 1992, dated 1994).

Protein sequences, listed by entry. Tags and fused reporters are not part of them. Lines headed by an entry give the natural chain unless they say otherwise; changes in a name come on top.
UniProt P70536: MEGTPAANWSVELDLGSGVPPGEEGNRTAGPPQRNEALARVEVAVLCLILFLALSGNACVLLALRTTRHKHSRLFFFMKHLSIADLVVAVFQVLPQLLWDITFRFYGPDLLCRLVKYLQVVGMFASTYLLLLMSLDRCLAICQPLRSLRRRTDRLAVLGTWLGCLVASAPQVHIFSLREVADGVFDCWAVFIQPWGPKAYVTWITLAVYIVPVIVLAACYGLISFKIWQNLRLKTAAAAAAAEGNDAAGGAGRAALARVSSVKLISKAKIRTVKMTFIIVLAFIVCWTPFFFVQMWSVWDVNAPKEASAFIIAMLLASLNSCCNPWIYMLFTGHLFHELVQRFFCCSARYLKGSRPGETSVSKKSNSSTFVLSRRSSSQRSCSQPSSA
UniProt P30560, whole entry, looked up: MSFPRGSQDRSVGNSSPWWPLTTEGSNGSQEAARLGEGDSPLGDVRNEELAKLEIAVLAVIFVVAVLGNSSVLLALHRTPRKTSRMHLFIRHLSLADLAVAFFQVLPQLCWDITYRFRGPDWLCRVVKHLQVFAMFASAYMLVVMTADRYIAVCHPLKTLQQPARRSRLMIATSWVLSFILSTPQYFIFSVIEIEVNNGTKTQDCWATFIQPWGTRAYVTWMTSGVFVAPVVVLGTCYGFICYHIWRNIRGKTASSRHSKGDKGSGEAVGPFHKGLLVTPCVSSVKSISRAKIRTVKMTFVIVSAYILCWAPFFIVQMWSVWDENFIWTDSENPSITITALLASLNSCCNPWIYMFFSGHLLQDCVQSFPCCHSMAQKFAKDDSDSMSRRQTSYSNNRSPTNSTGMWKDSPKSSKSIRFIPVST
UniProt Q00788, whole entry, looked up: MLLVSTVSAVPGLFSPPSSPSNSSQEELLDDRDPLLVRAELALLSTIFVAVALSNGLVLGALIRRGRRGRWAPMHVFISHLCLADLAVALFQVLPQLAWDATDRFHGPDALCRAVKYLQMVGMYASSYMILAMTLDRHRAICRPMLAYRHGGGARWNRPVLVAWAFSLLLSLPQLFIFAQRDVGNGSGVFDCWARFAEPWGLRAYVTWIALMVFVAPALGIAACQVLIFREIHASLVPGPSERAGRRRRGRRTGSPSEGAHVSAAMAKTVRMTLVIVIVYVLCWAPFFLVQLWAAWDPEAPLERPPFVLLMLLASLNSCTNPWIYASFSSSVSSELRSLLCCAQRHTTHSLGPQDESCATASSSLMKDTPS

Columns and labels:
[1] = target: uterine OT receptors (Rattus norvegicus, UniProt P70536); assay: [3H]oxytocin (OT) radioligand binding, uterine membranes
[2] = target: AVP-V1 sites (Rattus norvegicus, UniProt P30560); assay: [3H]vasopressin (AVP) radioligand binding, liver membranes (AVP-V1 sites); conditions: @ 3 uM
[3] = target: AVP-V2 sites (Rattus norvegicus, UniProt Q00788); assay: [3H]vasopressin (AVP) radioligand binding, kidney medulla membranes (AVP-V2 sites); conditions: @ 3 uM

| SMILES | % Inhibition rat OT ([1]; @ 10 uM) | other results |
| --- | --- | --- |
| CCCCOc1ccc(C(=O)N2CCC(N3C(=O)CCc4ccccc43)CC2)cc1 |  | % Inhibition rat OT ([1]; @ 1 uM): 38% |
| O=C(c1ccc(F)cc1)N1CCC(N2C(=O)CCc3ccccc32)CC1 | 69% |  |
| CCc1ccc(C(=O)N2CCC(N3C(=O)CCc4ccccc43)CC2)cc1 | 80% |  |
| O=C(c1ccccc1)N1CCC(N2C(=O)CCc3ccccc32)CC1 | 69% |  |
| N#Cc1ccc(C(=O)N2CCC(N3C(=O)CCc4ccccc43)CC2)cc1 | 52% | % Inhibition rat V1 [2]: 59%; % Inhibition rat V2 [3]: 3% |
| O=C(c1ccc([N+](=O)[O-])cc1)N1CCC(N2C(=O)CCc3ccccc32)CC1 | 57% |  |
| Cc1ccc(C(=O)N2CCC(N3C(=O)CCc4ccccc43)CC2)cc1 | 73% |  |
